Antibody variant affinities, Ab-14 heavy chain, assay B

The measurements come from Li et al. 2023 (doi:10.1038/s41467-023-39022-2) through the FLAb antibody collection.

Antigen: PDVDLGDISGINAS, a 14-residue peptide of the SARS-CoV-2 spike HR2 region.

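Phage display of a naive human antibody library on the peptide gave the parent. These sequences belong to a second round, designed from the earlier measurements on random variants of the parent. Several design methods are mixed in this list. The assay is AlphaSeq: two haploid yeast populations carry antibody and antigen on their surface. Mating (16 h, 30 °C) was followed by selection of diploids and sequencing of their barcodes. The ratio of observed to expected reads was calibrated, replicate by replicate, on BCL2-family standards whose Kd was known from biolayer interferometry. There are six technical replicates.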

Ab-14 is the parent antibody, in scFv form: VH, then a 15-residue (Gly4Ser)3 linker, then VL. The light chain is unchanged in all variants.
VH: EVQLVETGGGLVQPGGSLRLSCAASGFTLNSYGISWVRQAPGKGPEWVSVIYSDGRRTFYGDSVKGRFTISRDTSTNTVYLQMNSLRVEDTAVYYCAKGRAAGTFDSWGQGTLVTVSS
VL: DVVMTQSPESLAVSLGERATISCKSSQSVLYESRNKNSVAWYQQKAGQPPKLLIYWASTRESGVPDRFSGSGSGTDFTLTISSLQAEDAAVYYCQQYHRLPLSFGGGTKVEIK

The parent's heavy chain CDRs are GFTLNSYGIS, VIYSDGRRTFYGDSVK, GRAAGTFDS; each variant's own CDRs replace them letter for letter. Numbers give log10(Kd / nM), so 0 is 1 nM and 3 is 1 µM. Smaller is tighter. The mean shown is taken over the replicates in which the pair was detected. "ND" means that the variant was in the library but no mating with the target was seen in that replicate; the authors take this as a sign of poor binding, and no number exists. Order: sorted from the lowest average up, undetected variants last.

CDR-H1	CDR-H2	CDR-H3	log10 Kd (nM) by replicate	log10 Kd (nM), mean	signal with controls
GFDLNEYGIS	VIYADGMRKAYADSVK	GGNAGTFDV	-0.89 -1.19 -1.31 -1.42 -1.15 -1.37	-1.22	0/18
GFDLNEYGIS	VIYADGRRTAYADSVK	GNLAGTFDT	0.09 -0.90 -0.92 -0.77 -1.40 -0.60	-0.75	1/18 (0.91)
GFDLEDYGIS	VIYADGRRTAYIDSVK	GEQAGTFDS	-0.66 -0.74 -0.68 -0.92 -0.76 -0.65	-0.74	0/18
GFDLNEYGIS	VIYADGSRTAYIDSVK	GNVAGTFDV	-0.56 -0.75 -0.59 -0.70 -0.70 -0.53	-0.64	0/18
GFDLNEYGIS	VIYADGVRTAYTDSVK	GANAGTFDV	-0.22 -0.11 -0.54 -0.66 -0.36 -0.68	-0.43	0/18
GFDLDEYGIS	VIYADGMRTAYADDVK	GQVAGTFDL	-0.55 -0.20 -0.24 -0.17 -0.55 -0.54	-0.38	0/18
GFSLNEYGIS	VIYSDGRRTFYADSVK	GRAAGTFDT	-0.14 -0.43 -0.33 -0.51 -0.32 -0.08	-0.30	0/18
GFELNEYGIS	VIYSDGRRTFYGDSVK	GREAGTFDK	0.03 -0.15 -0.36 -0.46 0.10 0.17	-0.11	0/18
GFSLDEYGIS	VIYADGRRTAYQDDVK	GNVAGTFDV	ND 0.30 -0.26 ND ND -0.30	-0.09	0/18
GFDLEDYGIS	VIYADGRRTFYADKVK	GENAGTFDI	0.05 -0.26 0.14 -0.42 0.10 0.12	-0.04	0/18
GFTLNSYGIS	VIYSDGRRTFYDDSVK	GEEAGTFDS	ND -0.19 0.76 -0.26 0.09 0.08	0.10	0/18
GFDLNEYGIS	VIYADGMRKVYADSVK	GQNAGTFDV	0.68 -0.02 0.95 0.19 -0.67 0.19	0.22	0/18
GFDLNSYGIS	VIYSDGRRTFYGDKVK	GRTAGTFDD	0.37 0.42 0.23 0.31 0.07 0.44	0.31	2/18 (2.06)
GFQLNDYGIS	VIYSDGRRTFYGDSVK	GRTAGTFDS	0.96 0.08 0.16 0.39 0.84 0.97	0.57	0/18
GFTLNEYGIS	VIYSDGRRTFYTDSVK	GFAAGTFDS	0.54 0.53 0.49 0.67 0.26 1.02	0.59	0/18
GFTLNDYGIS	VIYSDGIRTFYGDSVK	GRAAGTFDS	0.76 0.38 0.57 0.24 0.88 0.86	0.62	0/18
GFTLDSYGIS	VIYSDGRRTFYGDSVK	GQAAGTFDK	ND ND ND 1.08 ND ND	1.08	0/18
GFTLNSYGIS	VIYSDGRRTFYSDSVK	GRIAGTFDS	1.04 ND 1.74 0.26 ND 1.81	1.21	0/18
GFALNDYGIS	VMYSDGRRTFYGDSVK	GRAAGTFDS	1.53 0.88 0.70 0.71 2.01 1.66	1.25	0/18
GFQLNSYGIS	VIYSDGRRTFYQDKVK	GRTAGTFDS	1.47 1.62 1.09 2.06 1.46 1.59	1.55	0/18
GFNLNSYGIS	VIYSDGRRTFYGDDVK	GQAAGTFDS	1.72 1.50 2.06 1.84 2.00 1.17	1.71	0/18
GFWLNEYGIS	VIYSDGRRTFYADSVK	GRAAGTFDK	ND ND ND 1.48 1.81 1.89	1.73	0/18
GFTLNEYGIS	VIYSDGRRQFYTDSVK	GRAAGTFDS	2.74 1.63 2.40 1.20 1.33 1.09	1.73	2/18 (2.78)
GFDLNSYGIS	VIYSDGWRTFYEDSVK	GRAGGTFDS	ND ND 1.85 ND ND ND	1.85	0/18
GFTVNSYGIS	VIYSDGRRTFYGPSVK	GRAAGTFDS	1.56 2.74 ND ND ND ND	2.15	0/18
GFTLNSYGIT	VIYSDGRRTSYGDEVK	GRAAGTFDS	ND ND ND ND ND ND	ND	1/18 (0.73)
GMDLEEMGIS	VIYADGLRSAYVDSVK	GGVGDYDFV	ND ND ND ND ND ND	ND	0/18
GFTLNDYGIS	VIYSDGERTFYGDSVK	GRAAGTSDS	ND ND ND ND ND ND	ND	0/18
GFQLEEMGIS	VIYADGVRTAYSSKVK	GINGDKFDV	ND ND ND ND ND ND	ND	0/18
GFSLNSYGIS	VIYSDGRRTFYCDSVK	GRTAGTFDS	ND ND ND ND ND ND	ND	0/18
GFTLNSQGIS	VIYADGKRTFYGDSVK	GRAADTFDS	ND ND ND ND ND ND	ND	0/18
GFTINSYGIS	VIYSDGRRTQYIDSVK	GRAAITFDS	ND ND ND ND ND ND	ND	0/18
GFTINDYGIS	VIYSDGRRTFYGDSVK	GRAAGEFDS	ND ND ND ND ND ND	ND	0/18
GEDLDEYGIS	VIYADGRRVVYQDQVK	GELAGVFAQ	ND ND ND ND ND ND	ND	0/18
RFTLNDYGIS	VIYSDGRRTQYIDSVK	GRAAGTFDS	ND ND ND ND ND ND	ND	0/18
GFDLNSYGIS	VIYSDGRRTFYGDSVK	GRTAATFNS	ND ND ND ND ND ND	ND	0/18

The opening 3 entries, copied out:

CDR-H1	CDR-H2	CDR-H3	log10 Kd (nM) by replicate	log10 Kd (nM), mean	signal with controls
GFDLNEYGIS	VIYADGMRKAYADSVK	GGNAGTFDV	-0.89 -1.19 -1.31 -1.42 -1.15 -1.37	-1.22	0/18
GFDLNEYGIS	VIYADGRRTAYADSVK	GNLAGTFDT	0.09 -0.90 -0.92 -0.77 -1.40 -0.60	-0.75	1/18 (0.91)
GFDLEDYGIS	VIYADGRRTAYIDSVK	GEQAGTFDS	-0.66 -0.74 -0.68 -0.92 -0.76 -0.65	-0.74	0/18

As a blank, each scFv also met three strains without target: over all heavy chain designs, 1% of these pairings were detected, typically at 2.08 and seldom below 0.84. For each scFv, signals with the empty controls are counted beside the result, with their mean in brackets. Values of this round are not directly comparable with the first-round values of the same sequences. In the paper, a design with two or fewer of six values counts as a poor binder.